Assay outcomes: PubChem BioAssay, National Center for Advancing Translational Sciences (NCATS)
Hits are enriched below; roughly 2.3% of the tested compounds scored in any of these assays.
Mito fusion act: mitochondrial division inhibition or fusion activation; 320,000 compounds, 0.23% hits; AID 485298; S. cerevisiae fusion-defective mutant growth rescue, CellTiterGlo 48 h; Potency, µM (doses to about 46.1 µM), without a hit: at the highest dose growth rescue (activation), usual class: activators; further: potency means the concentration at half of the fitted maximal effect; % of control where 0% means no effect; nearly all actives have a fitted effect of over 45% in size
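Yeast fusion mutant, YPEG (non-fermentable carbon), compound, 48 h at 37C non-permissive; CellTiterGlo added, 10 min RT, luminescence read. Rescued growth = division inhibition.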
Glioma ERSR ind: inducers of ER stress response in human glioma cells; U87-MG GRP78 promoter luciferase reporter, 16 h; Potency, µM, for the others: top-dose activation, most hits filed as activators; 420,000 compounds, 0.02% hits; further: potency means the concentration at half of the fitted maximal effect; series mostly up to about 76 µM; % of control where 0% means no effect; nearly all actives have a fitted effect of over 35% in size
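ERSR induction read as luciferase luminescence (Bright-Glo, 10 min at room temperature) in stably transfected human U87-MG glioma cells exposed to compounds for 16 h, using GRP78 as sensor.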
Nrf2 ARE act: activates Nrf2 signaling; AID 624171; 410,000 compounds, 0.31% hits; AREc32 ARE-luciferase reporter (MCF7-derived line), luminescence, 24 h; Potency, µM (top dose mostly 46.1 µM), for the others: top-dose activation, hits mostly activators; further: potency means the concentration at half of the fitted maximal effect; % of control where 0% means no effect; nearly all actives have a fitted effect of over 65% in size
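Luciferase luminescence (Steady-Glo, 30 min at room temperature) served as the read-out of ARE activation in AREc32 cells treated with compounds for 24 hr at 37 deg C.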
miR-21 reporter: raises the signal of a miR-21 reporter; Potency, µM (doses to about 38.3 µM), inactives show top-dose reporter change, positive = more light; HeLa miR-21 FLuc reporter, luciferase, 48 h; AID 2288; 340,000 tested, under 10 active; active = well fitted rising curve with a large enough effect; inconclusive = small, poorly fitted or top-dose-only effect; inactive = no such curve, though single readings can be large or run the other way;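 further: % of control where 0% means no effect; miR-21 action dims this reporter so a rising signal means less miR-21 action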
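Compounds were titrated across several concentrations (up to approximately 40 uM) and incubated 48 hours with HeLa miR-21-FLuc reporter cells (miR-21 target sequence downstream of FLuc, endogenous miR-21). Readout was firefly luciferase luminescence after lytic detection reagent.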
Nrf2 inh: inhibitors of Nrf2 signaling; AID 504444; A549 ARE-Fluc reporter, luciferase luminescence, 18-24 h; 360,000 compounds, 2.1% hits; Potency, µM (top dose mostly 46 µM), for the others: top-dose activity change, negative = inhibition, usual class: inhibitors; further: potency means the concentration at half of the fitted maximal effect; on the % scale 0 is the no-effect control and ±100 the full control effect; nearly all actives have a fitted effect of over 60% in size
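Nrf2 activity is the BugLite luminescence, read 15 min after reagent at room temperature, following CellTiter-Fluor cytotoxicity readout (30 min, 37C). Compound titrations were applied for 18-24 h to 5000 A549 ARE_Fluc cells/well in 5% FBS OPTI-MEM.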
A549 tox-1: kills or reduces viability of A549 cells in Nrf2 counter-screen; A549 ARE-Fluc cells, CellTiter-Fluor viability, 18-24 h; Potency, µM (highest dose often 46 µM), without a hit: at the top dose activity change, negative = cytotoxicity, actives largely listed as inhibitors; 390,000 compounds, 0.16% hits; further: potency means the concentration at half of the fitted maximal effect; on the % scale 0 is the no-effect control and ±100 the full control effect
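A549 ARE_Fluc cells in 5% FBS OPTI-MEM were exposed to compounds in concentration-response for 18-24 h at 37 deg C. Viability was read by CellTiter-Fluor fluorescence (Ex 405/Em 525) after 30 min, before the luciferase read.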
FLuc counter 3: blocks purified firefly luciferase in Nrf2 counterscreen; shares compounds with Nrf2 inh; purified firefly luciferase, luminescence inhibition; Potency, µM (doses to about 57.5 µM), without a hit: at the highest dose activity change, negative = inhibition, most hits filed as inhibitors; 1,400 compounds, 4% hits; AID 720522; further: potency means the concentration at half of the fitted maximal effect; on the % scale 0 is the no-effect control and ±100 the full control effect; nearly all actives have a fitted effect of over 65% in size
A549 tox-2: counter-screen for Nrf2 inhibitors: cytotoxicity in A549 ARE cells. 1,400 compounds, 2% hits. Potency, µM (series often up to 46.1 µM), for the others: at the top dose activity change, negative = cytotoxicity, most hits filed as inhibitors. AID 720523. shares compounds with Nrf2 inh. A549 ARE-Fluc cells, cytotoxicity counterscreen;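 further: potency means the concentration at half of the fitted maximal effect; cells exposed to compounds for 18 to 24 hours; on the % scale 0 is the no-effect control and ±100 the full control effect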
Nrf2 ARE inh: Nrf2 inhibition confirmed, A549 ARE-luciferase; shares compounds with Nrf2 inh; A549 ARE-firefly luciferase reporter, luminescence; Potency, µM (series often up to 46.1 µM), inactives show at the top dose activity change, negative = inhibition, hits mostly inhibitors; 1,400 compounds, 74% hits; AID 720524; further: potency means the concentration at half of the fitted maximal effect; on the % scale 0 is the no-effect control and ±100 the full control effect; nearly all actives have a fitted effect of over 65% in size
Starred values were filed as active, the others as inactive; ? = inconclusive; / = no result given; [ ] = dose if it differs, or a comment. Unless noted, the call rests on the fitted dose curve; in most records, active means well fitted curve in the direction sought with a large enough effect; inconclusive means small, poorly fitted or top-dose-only effect, or another doubt; inactive means no such curve, though single readings can be large; an effect the other way counts as inactive or inconclusive.

#1 CC(=O)c1c(C)[nH]c(C(=O)OCCCCN2C(=O)c3ccccc3C2=O)c1C
#2 CC(OC(=O)c1ccc(NC(=O)CC#N)cc1)C(=O)NCCC1=CCCCC1 (configuration not stated)
#3 CC(C)(C)c1ccc(-c2noc(CCC(N)=O)n2)cc1
#4 COc1ccc(-c2nc(C3CCCCC3)c3cc(OC)ccc3n2)cc1
#5 COc1ccc(S(=O)(=O)N2CCN(CCOc3ccc(Br)cc3)CC2)cc1OC
#6 O=C(O)CCn1cc(-c2ccc(Cl)cc2)nc1-c1ccncc1
#7 O=[N+]([O-])c1ccc(C[n+]2cccc3c4ccccc4ccc32)cc1
#8 Cc1ccc[n+](Cc2ccc([N+](=O)[O-])cc2)c1

assay / compound,1,2,3,4,5,6,7,8
A549 tox-1,-19%,1%,-7%,6%,-16%,13%,?,2%
miR-21 reporter,13%,/,?,/,/,/,?,1%
FLuc counter 3,1%,/,3µM*,/,-11%,/,2%,/
Mito fusion act,0%,1%,4%,6%,20%,-6%,-4%,-1%
Nrf2 ARE inh,/,/,0.16µM*,/,7.3µM*,/,3.7µM*,/
Nrf2 inh,5.8µM*,7%,0.13µM*,13%,5.8µM*,3%,3.7µM*,?
A549 tox-2,-6%,/,-2%,/,?,/,-1%,/
Nrf2 ARE act,1%,-1%,-2%,-1%,4%,0%,-1%,0%
Glioma ERSR ind,-5%,-2%,-12%,-2%,-2%,-3%,-6%,0%

Single records, from the list above. Order of screens: A549 tox-1 | miR-21 reporter | FLuc counter 3 | Mito fusion act | Nrf2 ARE inh | Nrf2 inh | A549 tox-2 | Nrf2 ARE act | Glioma ERSR ind
`Cc1ccc[n+](Cc2ccc([N+](=O)[O-])cc2)c1` in the list: 2% | 1% | / | -1% | / | ? | / | 0% | 0%
`CC(=O)c1c(C)[nH]c(C(=O)OCCCCN2C(=O)c3ccccc3C2=O)c1C` in the list: -19% | 13% | 1% | 0% | / | 5.8µM* | -6% | 1% | -5%
`COc1ccc(S(=O)(=O)N2CCN(CCOc3ccc(Br)cc3)CC2)cc1OC` in the list: -16% | / | -11% | 20% | 7.3µM* | 5.8µM* | ? | 4% | -2%

(further entries)
#9 O=c1c2cccc3c2c(nn1CN1CCOCC1)-c1ccccc1-3
#10 Cc1ccc(S(=O)(=O)N2CCC(n3c(C)nc4cccnc43)CC2)c(C)c1
#11 Cc1cc(Cl)c(S(=O)(=O)N2CCN(c3ccc(F)cc3)CC2)cc1OCC(=O)NC1CCCCC1
#12 CC(Nc1ncnc2sccc12)c1ccccc1 (configuration not stated)
#13 O=C(c1cnc(N2CCN(c3ccccn3)CC2)c2ccccc12)N1CCN(c2cccc(Cl)c2)CC1
#14 O=[N+]([O-])c1ccc(CN2CCN(c3ccc([N+](=O)[O-])cc3)CC2)cc1
#15 Cn1c(C(O)c2ccccc2)nc(Cl)c1Cl (configuration not stated)
#16 COc1ccc(CNCc2ccc(C)cc2)c(OC)c1

assay / compound,9,10,11,12,13,14,15,16
A549 tox-1,-13%,-11%,-28%,-7%,-30%,-24%,0%[1.84 µM],12%
miR-21 reporter,-25%,28%,?,24%,-3%,24%,-6%,4%
FLuc counter 3,3%,-2%,1%,0%,4%,-1%,/,/
Mito fusion act,-5%,/,4%,4%,13%,30%,-2%,0%
Nrf2 ARE inh,8.2µM*,/,0.73µM*,1.5µM*,8.2µM*,/,/,/
Nrf2 inh,3.7µM*,9.2µM*,0.29µM*,1.6µM*,5.8µM*,7.3µM*,8%,1%
A549 tox-2,-9%,-9%,-27%,0%,-22%,-16%,/,/
Nrf2 ARE act,14%,5%,0%,0%,0%,2%,3%,0%
Glioma ERSR ind,-5%,-4%,-3%,-2%,1%,-8%,-3%,-5%

#17 COc1cc(CNCc2ccc(OC)cc2OC)cc(OC)c1
#18 NS(=O)(=O)c1ccc(NC(=O)c2cc(-c3ccccc3O)n[nH]2)cc1
#19 CCCCN(C)C(=O)C1CCCN(c2ncnc3onc(C)c23)C1 (configuration not stated)
#20 CCC(Nc1ccc(OC)cc1)C(=O)N/N=C/c1ccc([N+](=O)[O-])cc1 (configuration not stated)
#21 Cn1c(C(=O)N2CCN(c3ccc(Cl)cc3)CC2)cc2c(=O)[nH]c3ccccc3c21
#22 Cc1ccc(Cl)cc1N1CCN(C(=O)c2cc3c(=O)[nH]c4ccccc4c3n2C)CC1
#23 Cc1ccc(C)c(NC(=S)N2CCC(C(=O)c3ccc(F)cc3)CC2)c1
#24 COc1cc(CCC(=O)OCC(=O)Nc2ccccc2C(C)C)cc(OC)c1OC

assay / compound,17,18,19,20,21,22,23,24
A549 tox-1,-7%,2%,-21%,-4%,-27%,-20%,/,-1%
miR-21 reporter,10%,-13%,?,-14%,-4%,-6%,/,1%
FLuc counter 3,3%,/,-1%,/,/,2%,/,/
Mito fusion act,-1%,-8%,/,12%,3%,-1%,/,0%
Nrf2 ARE inh,?,/,2.9µM*,/,/,?,/,/
Nrf2 inh,7.3µM*,-12%,9.2µM*,11%,?,4.1µM*,/,12%
A549 tox-2,-3%,/,-19%,/,/,-25%,/,/
Nrf2 ARE act,0%,-1%,4%,1%,0%,0%,0%,1%
Glioma ERSR ind,-4%,-3%,-4%,-2%,-6%,-5%,-1%,0%

#25 CCCCNc1cc(C(=O)O)cc(S(N)(=O)=O)c1Oc1ccccc1
#26 CC(C)C[C@@H](CN1CCC[C@@H]1CN1C(=S)NC[C@@H]1Cc1ccc(O)cc1)N1C[C@H](Cc2ccc(O)cc2)N(CCc2ccccc2)C1=S
#27 O=C(NC(NC(=S)Nc1c(Cl)cc(Cl)cc1Cl)C(Cl)(Cl)Cl)OCc1ccccc1 (configuration not stated)
#28 O=c1cc(N2CCN(c3ccccc3)CC2)[nH]c(=O)n1C1CCCCC1
#29 O=c1cc(N2CCN(c3cccc(Cl)c3)CC2)[nH]c(=O)n1C1CCCCC1
#30 CCCCCCCCCCCCCCCC(=O)Nc1ccn(C2OC(CO)C(O)C2O)c(=O)n1 (configuration not stated)
#31 CCN(CC)S(=O)(=O)c1ccc2oc(C(=O)Nc3ccc(OC)cc3OC)c(C)c2c1
#32 CCN(CC)S(=O)(=O)c1ccc2oc(C(=O)NCc3ccc(F)cc3)c(C)c2c1
#33 COC(=O)C1=C(C)NC(=O)NC1c1ccsc1 (configuration not stated)

assay / compound,25,26,27,28,29,30,31,32,33
A549 tox-1,-3%,/,?,?,?,-3%,-5%,-16%,-7%
miR-21 reporter,6%,/,26%,9%,15%,/,-7%,?,4%
FLuc counter 3,2%,/,-4%,/,-1%,0%,-1%,-2%,/
Mito fusion act,-41%,/,1%,0%,0%,/,3%,18%,-1%
Nrf2 ARE inh,6.5µM*,/,23µM*,/,/,0.82µM*,15µM*,23µM*,/
Nrf2 inh,5.8µM*,/,2.9µM*,-6%,?,?,3.7µM*,6.5µM*,/
A549 tox-2,-7%,/,?,/,?,-11%,5%,-6%,/
Nrf2 ARE act,0%,-2%,12%,1%,-1%,0%,0%,3%,0%
Glioma ERSR ind,-2%,-11%,-3%,-5%,-2%,-2%,3%,-2%,-5%
